Experiment: Pharmacokinetic and biodistribution study of doxorubicin formulations
Assay type: in vivo, SCID mice
Conditions: 2 mg/kg i.v.; total tumor doxorubicin; spectrofluorometry; n = 3 per time point
Method: SCID mice bearing NSCLC xenografts (∼500 mm^3), were injected in the tail vein with various formulations of liposomal doxorubicin (SP5-2-LD, MP5-2-LD, and LD) and free doxorubicin at a dose of 2 mg/kg. At selected time points, three mice in each group were anaesthetized and sacrificed. Blood samples were collected through submaxillary punctures, and plasma samples were prepared. After perfusion, xenograft tumors and mouse organs were removed and homogenized. […] Total doxorubicin concentration was measured using a method described by Mayer et al.. […] Tissue concentrations of doxorubicin were expressed as microequivalents per milliliter of plasma or per gram of tissue. A standard doxorubicin curve was prepared in control homogenates following the same extraction procedure as above. Drug levels were estimated on the basis of doxorubicin fluorescent equivalents.

COc1cccc2c1C(=O)c1c(O)c3c(c(O)c1C2=O)C[C@@](O)(C(=O)CO)C[C@@H]3O[C@H]1C[C@H](N)[C@H](O)[C@H](C)O1 [FD, doxorubicin]
AUC0-48 h, Total: 10.44 μg h/g tumor
